Molecular target: AtBAG5-long (Arabidopsis thaliana Bcl-2-associated athanogene 5, residues 49-153) (Arabidopsis thaliana, UniProt O65373 49-153)
Test: ITC; with Ca2+

Kd: 17.9 µM
B1: ATPase domain of human Hsp70 (called Hsc70 in the results) (domain or fragment)
chain: not shown

From paper PMC4990970 (2016)
